Results as given in publication doi:10.1101/521815.

Target: GST-ABIN-1 UBAN (aa 463-532) E484A (mouse) (UniProt Q9WUU8)
Assay: SPR

Kd: 623 nM
Substance: M1-linked tetra-ubiquitin (from UniProt P0CG48 1-76; P0CG48 1-76; P0CG48 1-76; P0CG48 1-76)
